{"sequences": {"note": "The chains behind the UniProt entries cited, without tags or fusion partners. Residues count along the entry.", "UniProt P12821, 30-1306": "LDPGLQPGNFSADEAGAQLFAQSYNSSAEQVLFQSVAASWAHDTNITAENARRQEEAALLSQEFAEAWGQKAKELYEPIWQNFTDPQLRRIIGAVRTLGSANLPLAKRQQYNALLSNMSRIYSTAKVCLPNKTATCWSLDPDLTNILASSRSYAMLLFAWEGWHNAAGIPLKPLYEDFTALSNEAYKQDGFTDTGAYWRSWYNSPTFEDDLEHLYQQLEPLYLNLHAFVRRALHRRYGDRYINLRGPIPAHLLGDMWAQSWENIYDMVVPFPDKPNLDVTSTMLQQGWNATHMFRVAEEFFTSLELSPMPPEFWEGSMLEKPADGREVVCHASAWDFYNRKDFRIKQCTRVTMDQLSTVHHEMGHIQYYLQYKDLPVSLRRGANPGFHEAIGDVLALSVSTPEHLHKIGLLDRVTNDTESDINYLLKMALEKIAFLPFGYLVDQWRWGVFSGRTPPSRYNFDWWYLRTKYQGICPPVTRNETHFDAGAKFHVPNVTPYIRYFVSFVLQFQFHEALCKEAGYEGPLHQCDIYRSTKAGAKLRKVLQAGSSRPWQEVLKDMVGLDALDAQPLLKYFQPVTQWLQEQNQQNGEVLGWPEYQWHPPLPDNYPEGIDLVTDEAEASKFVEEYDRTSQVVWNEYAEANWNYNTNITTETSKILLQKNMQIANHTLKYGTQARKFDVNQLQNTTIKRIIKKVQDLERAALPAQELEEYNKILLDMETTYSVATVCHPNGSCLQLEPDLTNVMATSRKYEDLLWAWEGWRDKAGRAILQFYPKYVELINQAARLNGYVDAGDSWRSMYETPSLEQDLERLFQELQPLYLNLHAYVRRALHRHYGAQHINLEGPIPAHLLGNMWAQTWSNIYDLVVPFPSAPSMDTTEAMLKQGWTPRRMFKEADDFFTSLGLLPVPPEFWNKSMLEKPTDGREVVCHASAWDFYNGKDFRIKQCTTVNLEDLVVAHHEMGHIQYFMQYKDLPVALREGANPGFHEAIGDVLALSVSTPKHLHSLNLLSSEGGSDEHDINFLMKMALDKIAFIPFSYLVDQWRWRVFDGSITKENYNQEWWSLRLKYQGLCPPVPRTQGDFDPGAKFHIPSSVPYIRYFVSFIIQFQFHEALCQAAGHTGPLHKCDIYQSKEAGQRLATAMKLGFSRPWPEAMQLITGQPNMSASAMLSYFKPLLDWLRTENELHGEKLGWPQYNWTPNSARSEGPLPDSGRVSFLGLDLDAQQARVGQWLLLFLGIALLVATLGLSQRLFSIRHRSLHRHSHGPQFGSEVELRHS"}, "source": "paper PMC12567347", "about": "“Angiotensin II/Angiotensin I Ratio as a New Pharmacodynamic Parameter for Population Modelling in Healthy Adults and Children with Heart Failure Treated with Enalapril” (Pharmaceutics, 2025)", "molecular_target": "angiotensin-converting enzyme (ACE) (Homo sapiens, UniProt P12821)", "assay": "Population pharmacokinetic/pharmacodynamic Imax model with effect compartment: effect of enalaprilat on angiotensin II/angiotensin I ratio in healthy adults", "assay_type": "in vivo", "set-up": "the angiotensin II/angiotensin I ratio can also serve as a measure of in vivo ACE activity in children with heart failure; from tissue; host or cells: in vivo in human subjects; ACE activity read indirectly from the plasma angiotensin II/angiotensin I ratio", "conditions": "population estimate", "procedure": "The adult data used were obtained from an open-label, single-sequence, single-dose study in nine healthy subjects. The enalaprilat, angiotensin I, and angiotensin II measurements from this study were analyzed. The study was conducted in 2013 at the Institute of Clinical Pharmacy and Pharmacotherapy at Heinrich Heine University Düsseldorf in Germany according to the Declaration of Helsinki and Good Clinical Practice recommendations. The Ethics Committee of the Medical Faculty of the Heinrich Heine University Düsseldorf granted the ethical approval (proposal no. 3809 [including all amendments]). The study was registered in the German Clinical Trials Register (DRKS00037310). Prior to participation, all subjects provided written informed consent.\nAfter a fasting period of at least 10 h, one tablet of 20 mg enalapril maleate (EnaHEXAL®, HEXAL, Holzkirchen, Germany) was administered to the subjects with 250 mL of water. The intake of xanthine-containing food or beverages and alcohol was prohibited for at least 48 h after administration.\nThe time points for pharmacodynamic sampling were predose, 0.5, 1, 2, 3, 4, 5, 6, 7, 8, 24, 48, and 72 h after administration.\nThe calibration range of angiotensin II was between 1 and 125 pg/mL. Further information regarding the analytical methods can be found elsewhere. […]", "data": [{"smiles": "C[C@H](N[C@@H](CCc1ccccc1)C(=O)O)C(=O)N1CCC[C@H]1C(=O)O", "note": "[enalaprilat]", "values": [{"measurement": "γ, sigmoidicity factor", "setting": "Imax model with full inhibition", "value": 2.02}, {"measurement": "ke0, effect compartment transfer rate constant", "value": 0.48, "unit": "h⁻¹"}]}]}
